Assay results reported in patent US8580752B2, “Aromatic amides as potentiators of bioefficacy of anti-infective drugs” (priority 2005, dated 2013).

How the values were obtained:
S aureus ATCC 29213 = assay: MIC by checkerboard method; format: cell-based, Staphylococcus aureus
MRSA 33 = assay: MIC by checkerboard method; format: cell-based, Staphylococcus aureus; conditions: S aureus MRSA 33
MRSA 450 = assay: MIC by checkerboard method; format: cell-based, Staphylococcus aureus; conditions: S aureus MRSA 450
S epidermidis ATCC 12228 = assay: MIC by checkerboard method; format: cell-based
B cereus RRL 101 = assay: MIC by checkerboard method; format: cell-based
MRSA 15187 = assay: MIC by checkerboard method; format: cell-based, Staphylococcus aureus; conditions: S aureus MRSA 15187
[1] = tested on: M. tuberculosis, M. avium and M. intracellure; assay: Decrease in MIC of rifampicin in combination; format: cell-based; conditions: Mycobacterial species (Table 3)
[2] = tested on: Staphylococcus aureus ATCC 29213; assay: Systemic infection model of mice; format: in vivo, Swiss albino mice; conditions: mice infected i.v. with S. aureus ATCC 29213, two doses 6 hrs apart, seven days of observation
[3] = tested on: bacteria, viruses and yeast; assay: In vitro screening in combination with anti-infective agents; format: cell-based
[4] = Subacute toxicity study, 28 days; conditions: 20, 40 and 100 mg/kg for 28 days
[5] = tested on: Staphylococcus aureus, MRSA; assay: Decrease in MIC in combination
[6] = Safety pharmacology studies (CNS, CVS and GIT profile); conditions: in vivo
[7] = with compound of formula 1a 3.12 μg/ml
[8] = with compound of formula 1a 6.25 μg/ml
[9] = with compound of formula 1a 12.5 μg/ml
[10] = with compound of formula 1a 25.0 μg/ml
[11] = with compound of formula 1a 50.0 μg/ml

SMILES: CCC(/C=C/C(=O)N1CCCCC1)=C\c1ccc2c(c1)OCO2 [compound of formula 1a, 4-ethyl-5-(3,4-methylenedioxyphenyl)-2E,4E-pentadienoic acid piperidine amide]
- MIC of Mupirocin (S aureus ATCC 29213; [7]): 0.12 µg/mL
- MIC Ciprofloxacin (S aureus ATCC 29213; [8]): 0.12 µg/mL
- MIC of Amikacin (S aureus ATCC 29213; [8]): 1.0 µg/mL
- MIC of Mupirocin (S aureus ATCC 29213; [8]): 0.12 µg/mL
- MIC Ciprofloxacin (S aureus ATCC 29213; [9]): 0.06 µg/mL
- MIC of Amikacin (S aureus ATCC 29213; [9]): 1.0 µg/mL
- MIC Ciprofloxacin (S aureus ATCC 29213; [10]): 0.06 µg/mL
- MIC of Amikacin (S aureus ATCC 29213; [10]): 0.5 µg/mL
- MIC Ciprofloxacin (S aureus ATCC 29213; [11]): 0.06 µg/mL
- MIC of Amikacin (S aureus ATCC 29213; [11]): 0.25 µg/mL
- MIC of Mupirocin (MRSA 33; [7]): 0.12 µg/mL
- MIC Ciprofloxacin (MRSA 33; [8]): 32 µg/mL
- MIC of Amikacin (MRSA 33; [8]): 8.0 µg/mL
- MIC of Mupirocin (MRSA 33; [8]): 0.12 µg/mL
- MIC Ciprofloxacin (MRSA 33; [9]): 16 µg/mL
- MIC of Amikacin (MRSA 33; [9]): 8.0 µg/mL
- MIC Ciprofloxacin (MRSA 33; [10]): 16 µg/mL
- MIC of Amikacin (MRSA 33; [10]): 4.0 µg/mL
- MIC Ciprofloxacin (MRSA 33; [11]): 16 µg/mL
- MIC of Amikacin (MRSA 33; [11]): 2.0 µg/mL
- MIC of Mupirocin (MRSA 450; [7]): 0.25 µg/mL
- MIC Ciprofloxacin (MRSA 450; [8]): 32 µg/mL
- MIC of Amikacin (MRSA 450; [8]): 8.0 µg/mL
- MIC of Mupirocin (MRSA 450; [8]): 0.25 µg/mL
- MIC Ciprofloxacin (MRSA 450; [9]): 16 µg/mL
- MIC of Amikacin (MRSA 450; [9]): 8.0 µg/mL
- MIC Ciprofloxacin (MRSA 450; [10]): 16 µg/mL
- MIC of Amikacin (MRSA 450; [10]): 4.0 µg/mL
- MIC Ciprofloxacin (MRSA 450; [11]): 16 µg/mL
- MIC of Amikacin (MRSA 450; [11]): 4.0 µg/mL
- MIC Ciprofloxacin (S epidermidis ATCC 12228; [8]): 0.12 µg/mL
- MIC of Amikacin (S epidermidis ATCC 12228; [8]): 0.5 µg/mL
- MIC Ciprofloxacin (S epidermidis ATCC 12228; [9]): 0.06 µg/mL
- MIC of Amikacin (S epidermidis ATCC 12228; [9]): 0.5 µg/mL
- MIC Ciprofloxacin (S epidermidis ATCC 12228; [10]): 0.03 µg/mL
- MIC of Amikacin (S epidermidis ATCC 12228; [10]): 0.25 µg/mL
- MIC Ciprofloxacin (S epidermidis ATCC 12228; [11]): 0.03 µg/mL
- MIC of Amikacin (S epidermidis ATCC 12228; [11]): 0.25 µg/mL
- MIC Ciprofloxacin (B cereus RRL 101; [8]): 0.12 µg/mL
- MIC of Amikacin (B cereus RRL 101; [8]): 1.0 µg/mL
- MIC Ciprofloxacin (B cereus RRL 101; [9]): 0.06 µg/mL
- MIC of Amikacin (B cereus RRL 101; [9]): 0.25 µg/mL
- MIC Ciprofloxacin (B cereus RRL 101; [10]): 0.03 µg/mL
- MIC of Amikacin (B cereus RRL 101; [10]): 0.25 µg/mL
- MIC Ciprofloxacin (B cereus RRL 101; [11]): 0.03 µg/mL
- MIC of Amikacin (B cereus RRL 101; [11]): 0.25 µg/mL
- MIC of Mupirocin (MRSA 15187; [7]): 0.25 µg/mL
- MIC of Mupirocin (MRSA 15187; [8]): 0.25 µg/mL
- reduction in MIC of rifampicin in combination with the potentiator [1]: Two-fold
- ED50 for ciprofloxacin in combination with the potentiator [2]: 5.86 mg/kg
- potentiation/synergism when combined with various anti-infective agents in vitro [3]: potentiation/synergism
- subacute toxicity: food/water consumption, body weight, organ weight, haematological and clinical chemistry profile [4]: No adverse effects were observed
- reduction in MIC of Amikacin in combination with the potentiator ([5]; Staphylococcus aureus species (Table 1)): Four-fold
- reductions in MIC of mupirocin in combination with the potentiator ([5]; bacterial species (Table-4)): Two to more than four fold
- safety pharmacology (CNS, CVS and GIT profile) [6]: did not reveal any abnormality
